Test results taken from patent publication US20250195530A1, “POLQ INHIBITORS” (ASTRAZENECA AB, priority 2022, published 2025).

Amino acid sequences for entries named in this document (tags omitted). Residues count along the entry.
UniProt O75417, 1780-2590: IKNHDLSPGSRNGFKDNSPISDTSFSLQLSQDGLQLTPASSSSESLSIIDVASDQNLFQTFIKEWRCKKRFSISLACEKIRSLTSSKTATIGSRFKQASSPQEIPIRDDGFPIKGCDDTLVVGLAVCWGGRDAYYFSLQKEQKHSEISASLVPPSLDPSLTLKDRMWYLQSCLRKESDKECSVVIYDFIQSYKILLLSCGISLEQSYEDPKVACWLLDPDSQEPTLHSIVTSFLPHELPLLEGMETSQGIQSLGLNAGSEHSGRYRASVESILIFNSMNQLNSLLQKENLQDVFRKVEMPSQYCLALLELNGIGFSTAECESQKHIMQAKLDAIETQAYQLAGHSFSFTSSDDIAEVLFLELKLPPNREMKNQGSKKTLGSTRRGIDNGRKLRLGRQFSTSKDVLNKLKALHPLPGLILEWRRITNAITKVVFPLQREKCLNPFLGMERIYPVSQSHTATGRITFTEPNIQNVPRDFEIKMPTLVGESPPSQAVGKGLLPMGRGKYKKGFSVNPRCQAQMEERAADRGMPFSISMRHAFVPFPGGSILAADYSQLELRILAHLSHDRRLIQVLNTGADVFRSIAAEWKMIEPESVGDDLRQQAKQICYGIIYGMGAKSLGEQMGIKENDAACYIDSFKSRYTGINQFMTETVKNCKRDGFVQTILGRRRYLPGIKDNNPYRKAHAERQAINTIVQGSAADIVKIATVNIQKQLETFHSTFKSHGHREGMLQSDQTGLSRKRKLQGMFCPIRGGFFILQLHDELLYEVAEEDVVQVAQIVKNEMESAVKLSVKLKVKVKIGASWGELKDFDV

Molecular target: isolated polymerase domain (I1780-V2590) of DNA polymerase theta (Polθ) (Homo sapiens (Human), UniProt O75417)
Assay: biochemical

Row | IC50 [nM] | Structure (SMILES)
1 | 10 | CC1(Oc2ncnc3c2nc(-c2ccc(OCCN4CCNCC4)cc2Cl)n3Cc2cc(C(F)F)ccn2)CC1 [Example T488, 8-(2-chloro-4-(2-(piperazin-1-yl)ethoxy)phenyl)-9-((4-(difluoromethyl)pyridin-2-yl)methyl)-6-(1-methylcyclopropoxy)-9H-purine]
2 | 15.8 | Cc1ccnc(Cn2c(-c3ccc(C(=O)N[C@H](C)CCO)cc3Cl)nc3c(OC4(C)CC4)ncnc32)c1 [Example T364, (R)-3-chloro-N-(4-hydroxybutan-2-yl)-4-(6-(1-methylcyclopropoxy)-9-((4-methylpyridin-2-yl)methyl)-9H-purin-8-yl)benzamide]
3 | 5.01 | CC(CCOc1ccc(-c2nc3c(OC4(C)CC4)ncnc3n2Cc2cccc(C(C)(F)F)c2)c(Cl)c1)C(=O)O (single isomer, unassigned) [Example T546, 4-(3-chloro-4-(9-(3-(1,1-difluoroethyl)benzyl)-6-(1-methylcyclopropoxy)-9H-purin-8-yl)phenoxy)-2-methylbutanoic acid]
4 | 6.31 | CC1(Oc2ncnc3c2nc(-c2ccc(OCCN4CCNCC4)cc2Cl)n3Cc2cc(Cl)c(F)cn2)CC1 [Example T346, 8-(2-chloro-4-(2-(piperazin-1-yl)ethoxy)phenyl)-9-((4-chloro-5-fluoropyridin-2-yl)methyl)-6-(1-methylcyclopropoxy)-9H-purine]
5 | 20 | Cc1ccnc(Cn2c(-c3ccc(C(=O)N4CC(F)C4)cc3Cl)nc3c(OC4(C)CC4)ncnc32)c1 [Example T153, (3-chloro-4-(6-(1-methylcyclopropoxy)-9-((4-methylpyridin-2-yl)methyl)-9H-purin-8-yl)phenyl)(3-fluoroazetidin-1-yl)methanone]
6 | 3.16 | CC1(Oc2ncnc3c2nc(-c2cccc(OCC(F)(F)CC(=O)O)c2Cl)n3Cc2cccc(Cl)c2)CC1 [Example U63, 4-(2-chloro-3-(9-(3-chlorobenzyl)-6-(1-methylcyclopropoxy)-9H-purin-8-yl)phenoxy)-3,3-difluorobutanoic acid]
7 | 10 | Cc1ccnc(Cn2c(-c3ccc(OCC(=O)N4CC(C)(O)C4)cc3Cl)nc3c(OC4(C)CC4)ncnc32)c1 [Example T477, 2-(3-chloro-4-(6-(1-methylcyclopropoxy)-9-((4-methylpyridin-2-yl)methyl)-9H-purin-8-yl)phenoxy)-1-(3-hydroxy-3-methylazetidin-1-yl)ethan-1-one]
8 | 5.01 | Cc1ccnc(Cn2c(-c3ccc(OC4CN(C(=O)[C@@H](C)O)C4)cc3Cl)nc3c(OC4(C)CC4)ncnc32)c1 [Example T482, (R)-1-(3-(3-chloro-4-(6-(1-methylcyclopropoxy)-9-((4-methylpyridin-2-yl)methyl)-9H-purin-8-yl)phenoxy)azetidin-1-yl)-2-hydroxypropan-1-one]
9 | 63.1 | Cc1ccnc(Cn2c(-c3ccc(C(=O)N4CCC(O)CC4)cc3Cl)nc3c(OC4(C)CC4)ncnc32)c1 [Example T460, (3-chloro-4-(6-(1-methylcyclopropoxy)-9-((4-methylpyridin-2-yl)methyl)-9H-purin-8-yl)phenyl)(4-hydroxypiperidin-1-yl)methanone]
10 | 10 | Cc1ccc(Cn2c(-c3ccc(CC(N)=O)cc3Cl)nc3c(OC4(C)CC4)ncnc32)cc1 [Example T100, 2-(3-chloro-4-(9-(4-methylbenzyl)-6-(1-methylcyclopropoxy)-9H-purin-8-yl)phenyl)acetamide]
11 | 5.01 | Cc1cc(C)nc(Cn2c(-c3ccc(OCCN4CCNCC4)cc3Cl)nc3c(OC4(C)CC4)ncnc32)c1 [Example T595, 8-(2-chloro-4-(2-(piperazin-1-yl)ethoxy)phenyl)-9-((4,6-dimethylpyridin-2-yl)methyl)-6-(1-methylcyclopropoxy)-9H-purine]
12 | 10 | Cc1ccnc(Cn2c(-c3ccc(OCC(=O)N(C)CC4(O)CC4)cc3Cl)nc3c(OC4(C)CC4)ncnc32)c1 [Example T583, 2-(3-chloro-4-(6-(1-methylcyclopropoxy)-9-((4-methylpyridin-2-yl)methyl)-9H-purin-8-yl)phenoxy)-N-((1-hydroxycyclopropyl)methyl)-N-methylacetamide]
13 | 10 | Cc1ccnc(Cn2c(-c3ccc(CC(=O)N4CC[C@@H](O)C4)cc3Cl)nc3c(OC4(C)CC4)ncnc32)c1 [Example T458, (R)-2-(3-chloro-4-(6-(1-methylcyclopropoxy)-9-((4-methylpyridin-2-yl)methyl)-9H-purin-8-yl)phenyl)-1-(3-hydroxypyrrolidin-1-yl)ethan-1-one]
14 | 39.8 | Cc1ncc(Cn2c(-c3ccc(CC(N)=O)cc3Cl)nc3c(OC4(C)CC4)ncnc32)s1 [Example T5, 2-(3-chloro-4-(6-(1-methylcyclopropoxy)-9-((2-methylthiazol-5-yl)methyl)-9H-purin-8-yl)phenyl)acetamide]
15 | 5.01 | COc1ccc(Cl)cc1Cn1c(-c2cccc(CCC(=O)O)c2Cl)nc2c(OC3(C)CC3)ncnc21 [Example U64, 3-(2-chloro-3-(9-(5-chloro-2-methoxybenzyl)-6-(1-methylcyclopropoxy)-9H-purin-8-yl)phenyl)propanoic acid]
16 | 7.94 | CCNC(=O)COc1ccc(-c2nc3c(OC4(C)CC4)ncnc3n2Cc2cc(C)ccn2)c(Cl)c1 [Example T221, 2-(3-chloro-4-(6-(1-methylcyclopropoxy)-9-((4-methylpyridin-2-yl)methyl)-9H-purin-8-yl)phenoxy)-N-ethylacetamide]
17 | 7.94 | Cc1ccnc(Cn2c(-c3ccc(CC(=O)O)cc3Cl)nc3c(OC4(C)CC4)ncnc32)c1 [Example T49, 2-(3-chloro-4-(6-(1-methylcyclopropoxy)-9-((4-methylpyridin-2-yl)methyl)-9H-purin-8-yl)phenyl)acetic acid]
18 | 5.01 | Cc1ccnc(Cn2c(-c3ccc(OCCC(C)(C)O)cc3Cl)nc3c(OC4(C)CC4)ncnc32)c1 [Example T382, 4-(3-chloro-4-(6-(1-methylcyclopropoxy)-9-((4-methylpyridin-2-yl)methyl)-9H-purin-8-yl)phenoxy)-2-methylbutan-2-ol]
19 | 3.98 | Cc1ccnc(Cn2c(-c3ccc(OC[C@H]4CNC(=O)O4)cc3Cl)nc3c(OC4(C)CC4)ncnc32)c1 [Example T188, (R)-5-((3-chloro-4-(6-(1-methylcyclopropoxy)-9-((4-methylpyridin-2-yl)methyl)-9H-purin-8-yl)phenoxy)methyl)oxazolidin-2-one]
20 | 7.94 | Cc1ccnc(Cn2c(-c3ccc(OCC(=O)N[C@@H]4CCOC4)cc3Cl)nc3c(OC4(C)CC4)ncnc32)c1 [Example T478, (R)-2-(3-chloro-4-(6-(1-methylcyclopropoxy)-9-((4-methylpyridin-2-yl)methyl)-9H-purin-8-yl)phenoxy)-N-(tetrahydrofuran-3-yl)acetamide]
21 | 2 | CN1CCCC(Oc2ccc(-c3nc4c(OC5(C)CC5)ncnc4n3Cc3ccccc3)c(Cl)c2)CC1 (single isomer, unassigned) [Example D14, 9-benzyl-8-(2-chloro-4-((1-methylazepan-4-yl)oxy)phenyl)-6-(1-methylcyclopropoxy)-9H-purine]
22 | 6.31 | Cc1ccnc(Cn2c(-c3ccc(CC(=O)N4CC[C@](C)(O)C4)cc3Cl)nc3c(OC4(C)CC4)ncnc32)c1 [Example T575, (S)-2-(3-chloro-4-(6-(1-methylcyclopropoxy)-9-((4-methylpyridin-2-yl)methyl)-9H-purin-8-yl)phenyl)-1-(3-hydroxy-3-methylpyrrolidin-1-yl)ethan-1-one]
23 | 12.6 | CNCCOc1ccc(-c2nc3c(OC4(C)CC4)ncnc3n2Cc2ncc(C)s2)c(Cl)c1 [Example T34, 2-(3-chloro-4-(6-(1-methylcyclopropoxy)-9-((5-methylthiazol-2-yl)methyl)-9H-purin-8-yl)phenoxy)-N-methylethan-1-amine]
24 | 2.51 | Cc1ccnc(Cn2c(-c3ccc(OCCNC(N)=O)cc3Cl)nc3c(OC4(C)CC4)ncnc32)c1 [Example T133, 1-(2-(3-chloro-4-(6-(1-methylcyclopropoxy)-9-((4-methylpyridin-2-yl)methyl)-9H-purin-8-yl)phenoxy)ethyl)urea]
25 | 3.16 | CC1(Oc2ncnc3c2nc(-c2ccc(OCCCC(C)(C)C(=O)O)cc2Cl)n3Cc2cccc(Cl)c2)CC1 [Example T563, 5-(3-chloro-4-(9-(3-chlorobenzyl)-6-(1-methylcyclopropoxy)-9H-purin-8-yl)phenoxy)-2,2-dimethylpentanoic acid]
26 | 7.94 | CC1(Oc2ncnc3c2nc(-c2cccc(OCCCCCCC(=O)O)c2Cl)n3Cc2cccc(Cl)c2)CC1 [Example T564, 7-(2-chloro-3-(9-(3-chlorobenzyl)-6-(1-methylcyclopropoxy)-9H-purin-8-yl)phenoxy)heptanoic acid]
27 | 15.8 | Cc1ccnc(Cn2c(-c3ccc(C(=O)NC4CC(F)C4)cc3Cl)nc3c(OC4(C)CC4)ncnc32)c1 (stereo not shown) [Example T280, 3-chloro-N-(3-fluorocyclobutyl)-4-(6-(1-methylcyclopropoxy)-9-((4-methylpyridin-2-yl)methyl)-9H-purin-8-yl)benzamide]
28 | 15.8 | Cc1ccnc(Cn2c(-c3ccc(C(=O)N4CC(C)(O)C4)cc3Cl)nc3c(OC4(C)CC4)ncnc32)c1 [Example T314, (3-chloro-4-(6-(1-methylcyclopropoxy)-9-((4-methylpyridin-2-yl)methyl)-9H-purin-8-yl)phenyl)(3-hydroxy-3-methylazetidin-1-yl)methanone]
29 | 5.01 | Cc1ccnc(Cn2c(-c3ccc(OCCNC(=O)CO)cc3Cl)nc3c(OC4(C)CC4)ncnc32)c1 [Example T227, N-(2-(3-chloro-4-(6-(1-methylcyclopropoxy)-9-((4-methylpyridin-2-yl)methyl)-9H-purin-8-yl)phenoxy)ethyl)-2-hydroxyacetamide]

Row | Structure (SMILES) | IC50 [nM]
30 | Clc1cc(OCCN2CCNCC2)ccc1-c1nc2c(OC3CCC3)ncnc2n1Cc1ccccc1 [Example T506, 9-benzyl-8-(2-chloro-4-(2-(piperazin-1-yl)ethoxy)phenyl)-6-cyclobutoxy-9H-purine] | 12.6
31 | CN1CCN(C(=O)COc2ccc(-c3nc4c(OC5(C)CC5)ncnc4n3Cc3ccccc3)c(Cl)c2)CC1 [Example C9, 2-(4-(9-benzyl-6-(1-methylcyclopropoxy)-9H-purin-8-yl)-3-chloro-phenoxy)-1-(4-methyl-piperazin-1-yl)ethan-1-one] | 3.98
